Experiments:
[1] = molecular target: 5-hydroxytryptamine receptor 1A (Homo sapiens, UniProt P08908); assay: Displacement of [3H]8-OH-DPAT from 5-HT1A receptor expressed in CHO cells after 20 mins by liquid scintillation counting
[2] = molecular target: 5-hydroxytryptamine receptor 2A (Homo sapiens, UniProt P28223); assay: Binding affinity at 5-HT2A receptor by radioligand displacement assay
Histamine H1 receptor = Histamine H1 receptor (Homo sapiens, UniProt P35367); assay: Displacement of [3H]-Pyrilamine from human histamine H1 receptor by liquid scintillation counter
In short: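 Radioligand binding run by the NIMH Psychoactive Drug Screening Program. […] Standard errors were within 20% of the mean.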

Protein sequences, listed by entry. Tags and fused reporters are not part of them.
UniProt P08908, whole entry: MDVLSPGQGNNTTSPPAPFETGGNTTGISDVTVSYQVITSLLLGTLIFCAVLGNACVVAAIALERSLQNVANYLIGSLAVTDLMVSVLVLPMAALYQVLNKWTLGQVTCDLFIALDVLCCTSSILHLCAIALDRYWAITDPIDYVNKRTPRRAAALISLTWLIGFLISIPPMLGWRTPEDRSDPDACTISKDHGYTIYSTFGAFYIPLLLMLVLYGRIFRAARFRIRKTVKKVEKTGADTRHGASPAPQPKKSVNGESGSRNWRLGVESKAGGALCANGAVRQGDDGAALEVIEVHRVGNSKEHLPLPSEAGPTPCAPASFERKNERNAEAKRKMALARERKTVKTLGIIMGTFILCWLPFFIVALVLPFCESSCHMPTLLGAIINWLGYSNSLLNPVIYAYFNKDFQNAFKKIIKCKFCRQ
UniProt P28223, whole entry: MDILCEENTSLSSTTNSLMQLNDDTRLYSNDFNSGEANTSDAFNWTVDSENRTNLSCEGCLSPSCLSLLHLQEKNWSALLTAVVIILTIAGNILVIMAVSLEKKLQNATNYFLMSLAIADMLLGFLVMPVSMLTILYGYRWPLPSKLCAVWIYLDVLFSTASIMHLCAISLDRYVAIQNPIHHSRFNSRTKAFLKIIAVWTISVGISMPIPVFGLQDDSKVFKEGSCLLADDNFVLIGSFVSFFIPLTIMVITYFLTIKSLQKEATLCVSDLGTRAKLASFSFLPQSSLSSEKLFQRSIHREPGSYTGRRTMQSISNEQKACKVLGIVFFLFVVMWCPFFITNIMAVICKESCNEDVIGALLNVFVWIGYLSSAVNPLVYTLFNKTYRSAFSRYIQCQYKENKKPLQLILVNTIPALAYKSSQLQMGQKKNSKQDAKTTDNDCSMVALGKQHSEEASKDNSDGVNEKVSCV
UniProt P35367, whole entry: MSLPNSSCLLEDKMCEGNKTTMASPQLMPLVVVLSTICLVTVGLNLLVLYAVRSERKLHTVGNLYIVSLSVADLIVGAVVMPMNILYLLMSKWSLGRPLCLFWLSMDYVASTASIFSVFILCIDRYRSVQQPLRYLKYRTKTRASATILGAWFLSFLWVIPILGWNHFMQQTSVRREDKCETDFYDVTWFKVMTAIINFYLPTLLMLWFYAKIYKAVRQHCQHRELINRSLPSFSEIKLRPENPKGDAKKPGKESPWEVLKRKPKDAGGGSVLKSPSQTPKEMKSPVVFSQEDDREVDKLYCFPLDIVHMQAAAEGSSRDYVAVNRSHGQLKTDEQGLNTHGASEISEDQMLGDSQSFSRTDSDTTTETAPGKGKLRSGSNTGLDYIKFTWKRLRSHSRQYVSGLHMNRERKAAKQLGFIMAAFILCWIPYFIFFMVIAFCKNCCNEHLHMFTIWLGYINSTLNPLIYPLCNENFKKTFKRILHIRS

**Q.** With `OC1(c2ccc(Cl)cc2)C[C@H]2CC[C@@H](C1)N2CCCCc1ccc(F)cc1` (some centres undefined) as the compound, how does the Ki [1] read?
**A.** 102 nM

**Q.** With `OC1(c2ccc(Cl)cc2)C[C@H]2CC[C@@H](C1)N2CCCOc1ccc(F)cc1` (some centres undefined) as the compound, how does the Ki [2] read?
**A.** 236 nM

**Q.** And the Ki [1]?
**A.** 123 nM

**Q.** What about the Ki (Histamine H1 receptor) of the same compound?
**A.** 4150 nM

— BindingDB's records for doi:10.1016/j.bmc.2012.01.022 (Florida A&M University, 2012)
